# Antibody variant affinities, Ab-91 heavy chain, assay 2

Antigen: PDVDLGDISGINAS, a 14-residue peptide of the SARS-CoV-2 spike HR2 region.

The variants keep the light chain, the linker and the frameworks of Ab-91 (scFv order VL, the linker GGGGSGGGGSGGGGS, VH).
VL: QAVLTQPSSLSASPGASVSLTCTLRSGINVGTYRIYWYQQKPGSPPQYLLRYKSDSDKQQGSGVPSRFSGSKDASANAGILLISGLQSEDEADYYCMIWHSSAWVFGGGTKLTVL
VH: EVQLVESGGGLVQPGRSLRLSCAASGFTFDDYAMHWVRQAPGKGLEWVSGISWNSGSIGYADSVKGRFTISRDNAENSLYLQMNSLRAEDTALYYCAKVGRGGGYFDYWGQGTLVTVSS

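The starting antibody came from a phage panning campaign against this peptide. In library AAYL51, one, two or three CDR residues were substituted; doubles and triples were drawn at random. The scFvs were displayed on barcoded MATa yeast, the peptide on MATalpha yeast. Pairs that bind mate more often; barcode pairs of the diploids are counted by sequencing. The ratio of observed to expected reads was calibrated, replicate by replicate, on BCL2-family standards whose Kd was known from biolayer interferometry. Mating was done three times.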

Substitutions are numbered in sequence along the VH above, starting at 1 (not Kabat).
Affinities are written as log10 Kd with Kd in nM; a lower number is a better binder.
The mean shown is taken over the replicates in which the pair was detected.
Where no diploid with the target was found in that replicate, the entry reads "nd": below detection, most likely a poor binder, though not proof of it.
Background: pairings of library AAYL51 with three empty control strains gave a value in 21% of cases (median 4.54, 5th percentile 3.26). Values in that range, when seen in few replicates, are hard to tell from nonspecific mating. Also given: how often the same scFv was detected with the empty control strains, with their mean in brackets.
For reference, the parent read 1.86 as the reference entry and 0.88 as a member of this library.

changes,"replicates, log10 nM","log10 Kd (nM), mean",control signals
A61R+D62T+G100K,2.36 2.45 2.01,2.27,0 of 9
S55H+R101N+Y105I,3.43 nd nd,3.43,0 of 9
D31H+K65N+F106K,2.03 2.04 2.04,2.04,1 of 9 (4.05)
S63C+K65R,3.68 5.75 nd,4.72,3 of 9 (3.86)
I51N+I58H,4.76 nd 4.61,4.68,3 of 9 (3.99)
Y32M+H35K+G59M,nd nd nd,nd,0 of 9
A61D+Y108K,nd nd nd,nd,1 of 9 (2.45)
T28M+D31R+A61T,1.19 1.21 0.84,1.08,2 of 9 (4.60)
G26R+V64T+Y108S,4.07 3.85 nd,3.96,2 of 9 (4.71)
I51S+G56I+A61V,nd nd nd,nd,0 of 9
F27R+Y32H+A33M,4.00 3.92 nd,3.96,1 of 9 (3.76)
F27I+F29R+D62Y,nd nd nd,nd,0 of 9
S63K+D107R,2.19 2.28 1.97,2.15,2 of 9 (4.52)
Y32N+G50T+D62P,6.54 nd 5.28,5.91,5 of 9 (5.25)
H35G+S57R+G103R,4.51 nd nd,4.51,1 of 9 (4.15)
F29D+S63Q+G104S,nd nd nd,nd,0 of 9
G56C+I58A+G103P,nd nd nd,nd,0 of 9
D31K+H35W+I58W,3.38 nd nd,3.38,0 of 9
D31C+G103P+G104P,2.68 2.77 3.06,2.84,4 of 9 (4.05)
T28L+W53E+F106R,5.00 nd nd,5.00,2 of 9 (5.64)
S52T+G56T+K65A,nd nd nd,nd,1 of 9 (4.02)
G26P+G56V+V99K,nd nd nd,nd,3 of 9 (4.51)
M34G+A61I+G104L,5.41 3.54 nd,4.47,3 of 9 (4.06)
G56F+F106K,1.01 0.91 0.22,0.71,0 of 9
H35E+G103F+Y108K,nd nd nd,nd,0 of 9
H35E+D107S,nd 4.89 nd,4.89,2 of 9 (4.54)
F29Q+W53F+G100P,nd 4.54 5.14,4.84,4 of 9 (5.57)
I51Q+S52A+W53R,nd nd 5.07,5.07,3 of 9 (4.48)
T28K+K65V+Y108T,nd 2.32 1.36,1.84,0 of 9
D62A+K65R+G103R,4.56 nd 4.59,4.58,0 of 9
H35D+G102C+Y105S,nd 4.88 nd,4.88,1 of 9 (3.01)
G50A+G100T+D107N,nd nd nd,nd,1 of 9 (5.06)
H35L+S57W+Y108A,nd nd nd,nd,1 of 9 (3.37)
F29W+G50Y+Y108R,nd nd nd,nd,1 of 9 (3.39)
G104L,3.73 nd 4.55,4.14,4 of 9 (4.39)
D30H+Y32T+D62R,3.69 3.82 4.03,3.85,9 of 9 (5.00)
M34H+Y105I+Y108R,nd nd nd,nd,2 of 9 (3.91)
M34C+G103F+D107T,nd nd nd,nd,0 of 9
D30V+S52A+S55T,3.14 3.07 2.59,2.93,0 of 9
G26T+G56F+S63L,6.37 5.09 nd,5.73,6 of 9 (5.08)

Top 3 of the variants detected in all replicates, tightest first:

changes,"replicates, log10 nM","log10 Kd (nM), mean",control signals
G56F+F106K,1.01 0.91 0.22,0.71,0 of 9
T28M+D31R+A61T,1.19 1.21 0.84,1.08,2 of 9 (4.60)
D31H+K65N+F106K,2.03 2.04 2.04,2.04,1 of 9 (4.05)

Source: Engelhart et al. 2022 (doi:10.1038/s41597-022-01779-4), MIT Lincoln Laboratory and A-Alpha Bio; data file from the FLAb repository.